Results as given in patent US5736528A, “N^6 -(epoxynorborn-2-yl) adenosines as A1 adenosine receptor agonists” (priority 1995, dated 1998).

The chains behind the UniProt entries cited, without tags or fusion partners.
UniProt P25099, whole entry: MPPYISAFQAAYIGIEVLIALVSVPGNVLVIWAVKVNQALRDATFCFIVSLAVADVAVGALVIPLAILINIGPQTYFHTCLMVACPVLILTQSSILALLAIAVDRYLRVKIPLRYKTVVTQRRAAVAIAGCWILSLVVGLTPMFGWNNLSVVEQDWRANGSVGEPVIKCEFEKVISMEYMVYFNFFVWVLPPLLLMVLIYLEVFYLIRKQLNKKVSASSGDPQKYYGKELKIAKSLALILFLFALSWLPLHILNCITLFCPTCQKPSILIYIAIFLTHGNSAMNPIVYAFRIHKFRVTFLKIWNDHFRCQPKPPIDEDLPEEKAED
UniProt P47745, whole entry: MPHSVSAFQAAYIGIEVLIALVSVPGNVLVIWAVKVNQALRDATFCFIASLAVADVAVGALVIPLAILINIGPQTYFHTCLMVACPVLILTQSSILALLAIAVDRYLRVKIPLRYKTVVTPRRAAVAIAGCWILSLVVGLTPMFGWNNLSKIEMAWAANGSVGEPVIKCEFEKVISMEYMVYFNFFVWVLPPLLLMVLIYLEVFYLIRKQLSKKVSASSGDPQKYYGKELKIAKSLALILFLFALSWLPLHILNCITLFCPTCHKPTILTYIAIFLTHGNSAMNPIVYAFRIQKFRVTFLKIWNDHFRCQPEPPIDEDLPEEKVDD
UniProt P46616, whole entry: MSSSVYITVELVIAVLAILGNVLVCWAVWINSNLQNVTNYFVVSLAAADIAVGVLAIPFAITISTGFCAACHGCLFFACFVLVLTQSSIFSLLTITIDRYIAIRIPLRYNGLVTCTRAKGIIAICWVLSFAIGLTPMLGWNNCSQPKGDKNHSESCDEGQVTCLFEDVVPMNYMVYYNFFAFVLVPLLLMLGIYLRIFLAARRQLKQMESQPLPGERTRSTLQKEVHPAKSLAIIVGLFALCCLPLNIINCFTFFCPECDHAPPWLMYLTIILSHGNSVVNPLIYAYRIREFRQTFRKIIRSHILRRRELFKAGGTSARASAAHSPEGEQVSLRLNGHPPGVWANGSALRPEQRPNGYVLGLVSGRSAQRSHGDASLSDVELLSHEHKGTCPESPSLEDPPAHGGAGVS

Tests used:
[1] = biological target: T1, rat brain adenosine A1 receptors (Rattus norvegicus, UniProt P25099); test: Antagonism of radioligand binding to rat brain adenosine A1 receptors; details: for Selectivity (A1 vs A2): rat brain
T1 construct: rat brain A1 adenosine receptors; from tissue; host or cells: rat brain

[2] = tested on: serum cholesterol and heparin precipitating β-lipoproteins; test: Serum cholesterol and heparin precipitating β-lipoproteins in mice; assay type: in vivo; details: 100 mg/kg per os
[3] = biological target: T2, A1 adenosine receptor (Rattus norvegicus, UniProt P25099); test: Biological activity and duration of action of ENX enantiomers; assay type: in vivo; details: S- vs R-enantiomer
T2 construct: from tissue; host or cells: whole animal

[4] = biological target: T3, A1 receptor (Cavia porcellus, UniProt P47745); test: Antagonism of A1 receptor-mediated negative dromotropic effect (S-H interval prolongation) of CCPA, Schild analysis, isolated perfused heart; design: species or system guinea pig; details: vs NAX and CPX
T3 construct: isolated perfused guinea pig heart; from tissue; host or cells: isolated perfused guinea pig heart

[5] = biological target: T4, A2 receptor (Cavia porcellus, UniProt P46616); test: Antagonism of A2 receptor-mediated coronary vasodilation (coronary conductance) caused by adenosine, isolated perfused heart; design: species or system guinea pig; details: ENX 0.4 μM with adenosine 4 μM
T4 construct: isolated perfused guinea pig heart; from tissue; host or cells: isolated perfused guinea pig heart (coronary circulation)
Description: . The values are the mean±SEM from five guinea pig hearts. […]
1. Functional studies. […]
Potency of various alkylxanthines to antagonize A2
of a maximum coronary vasodilation caused by adenosine. Values in […]

[6] = biological target: A1 adenosine receptor (Cavia porcellus, UniProt P47745); test: A1 receptor binding with [3H]CPX in forebrain membranes (Table 5); design: guinea pig forebrain (A1 receptor); from tissue; host or cells: guinea pig forebrain membranes; species or system guinea pig

CCCn1c(=O)c2[nH]c([C@@H]3C[C@H]4C[C@@H]3[C@@H]3O[C@H]43)nc2n(CCC)c1=O [R-ENX] was tested, and the “Selectivity (A1 vs A2)” value [1] was 960.

In the case of CCCn1c(=O)c2[nH]c([C@H]3C[C@@H]4C[C@H]3[C@H]3O[C@@H]43)nc2n(CCC)c1=O [S-ENX], the “binding selectivity for A1 vs A2” value ([1]; S- vs R-enantiomer) is reported as “higher binding selectivity for the A1 receptor”, the “Selectivity (A1 vs A2)” value [1] is reported as 7800 and the HPL/CHOL ratio [2] is reported as “below 0.92”. The “potency in vivo relative to other enantiomer” value [3] was “substantially higher potency in vivo”.

CCCn1c(=O)c2[nH]c(C3CC4CC3C3OC43)nc2n(CCC)c1=O (racemic) [ENX, 1,3-dipropyl-8-{3-oxatricyclo[3.1.2.0^2,4]oct-6(7)-yl}-xanthine] was tested, and the “A1 vs A2 functional selectivity (comparison)” value [4] was “far more selective than NAX and CPX”, the “effect on A2-mediated coronary vasodilation caused by adenosine” value [5] was “remained unaltered” and the “Selectivity (A1 vs A2)” value [1] was 1300. For the same compound, the “selectivity for A1 vs. A2” value [6] was 800 fold and the “Ratio A1/A2” value ([6]; guinea pig, forebrain vs striatum membranes) was 800.
